The target in one assay is T1, cannabinoid receptor CB1 (Mus musculus, UniProt P47746).
T1 construct: endogenous in cells; host or cells: N18TG2 mouse neuroblastoma cells
In words: Binding to cannabinoid receptor CB1, displacement of [3H]SR141716A on N18TG2 cell membranes. To be noted: 300 pM [3H]SR141716A, 90 min at 30° C., read-out: Ki, CB1 receptor, N18TG2 + cells, [3H]SR141716A ligand. On the procedure: Mouse neuroblastoma cells N18TG2 which selectively express the cannabinoid receptor CB1 and rat leukaemia basophil cells RBL-2H3+ which selectively express the cannabinoid receptor CB2 were used. […] The binding tests were carried out with membranes of the said cells resuspended in 50 mM pH 7.0 Tris buffer; 2.5 mM mgCl2; 0.8 mM EDTA; 0.05% bovine serum albumin (BSA); 0.01% ethanol and in the presence of 100 μM phenylmethylsulphonyl fluoride (PMSF; sigma) using 300 pM of [^3H]SR141716A and [^3H]WIN55,212-2, respectively, as ligand.
The membranes were incubated for 90 min at 30° C., filtered on glass microfibre filters (GFC-Whatman) and the radioactivity was measured by liquid scintillation. The specific binding was calculated using either 10 μM SR141716A or 10 μM HU-210 (obtained from Prof. R. Mechoulam, Hebrew University Jerusalem). The Ki values were calculated using the Chang-Prusoff equation and expressed as concentration μM.
A general note: Loss of bound radioactivity is the signal in a displacement assay; it reports binding, not function.

Protein sequences, listed by entry. Tags and fused reporters are not part of them.
UniProt P47746, whole entry: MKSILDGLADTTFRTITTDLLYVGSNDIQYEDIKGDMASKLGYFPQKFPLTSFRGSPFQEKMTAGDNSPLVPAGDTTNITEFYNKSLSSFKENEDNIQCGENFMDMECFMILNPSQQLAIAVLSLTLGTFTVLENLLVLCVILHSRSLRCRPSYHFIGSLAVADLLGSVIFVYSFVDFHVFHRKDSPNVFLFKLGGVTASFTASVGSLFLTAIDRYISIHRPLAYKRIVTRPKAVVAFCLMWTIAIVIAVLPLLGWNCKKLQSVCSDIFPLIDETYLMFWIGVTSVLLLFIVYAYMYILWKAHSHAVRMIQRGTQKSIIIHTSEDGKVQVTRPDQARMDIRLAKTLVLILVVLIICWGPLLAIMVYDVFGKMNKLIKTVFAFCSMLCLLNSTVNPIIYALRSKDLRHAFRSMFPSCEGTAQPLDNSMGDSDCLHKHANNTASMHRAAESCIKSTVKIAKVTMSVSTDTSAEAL

For a further assay, the target named is T2, receptor CB1 (Mus musculus, UniProt P47746).
T2 construct: endogenous in cells; host or cells: N18TG2 mouse neuroblastoma cells
In words: Effect on stimulation of cyclic AMP by forskolin in N18TG2 cells. Type of assay: cell-based. To be noted: 1 μM forskolin, 10 min at 37° C.; read-out: IC50, c-AMP stimulated by forskolin, N18TG2 cells. On the procedure: The tests were carried out with the aim of checking whether or not the binding of the N-AVAM molecules to the receptor CB1 had any functional significance. The c-AMP assays were carried out on confluent N18TG2 cells in 6-well petri dishes (Falcon); the cells were stimulated for 10 min at 37° C. with 1 μM forskolin (Fluka) in 400 μl of serum-free medium containing 20 mM Hepes, 0.1 mg/ml of BSA and 0.1 mM 1-methyl-3-isobutylxanthine (Sigma) and either ethanol or anandamide or N-AVAM molecules plus SR141716A. After incubation, the cells were extracted and the c-AMP levels were evaluated using a suitable kit from Amersham according to the manufacturer's procedure. The data are expressed as IC50, in μM.

1 compound from US7244767B2 (priority 1998, dated 2007) can be followed below.

Turning to `CCCCC/C=C\C/C=C\C/C=C\C/C=C\CCCC(=O)NCCO` [Anandamide, reference compound], on cannabinoid receptor CB1, the Ki worked out at 1910 ± 310 nM. The IC50 on receptor CB1 came to 3200 nM.

Usually Ki stands for the dissociation constant of the complex between target and ligand, obtained from inhibition or displacement. Broadly, the IC50 is the midpoint of a concentration-inhibition curve.
